Measurements reported in ChEMBL document CHEMBL1799928, “New 2-thioether-substituted apomorphines as potent and selective dopamine D₂ receptor agonists” (Eur J Med Chem, 2011).

Chains of the proteins cited; added tags and fusions are not shown.
UniProt P61169, whole entry: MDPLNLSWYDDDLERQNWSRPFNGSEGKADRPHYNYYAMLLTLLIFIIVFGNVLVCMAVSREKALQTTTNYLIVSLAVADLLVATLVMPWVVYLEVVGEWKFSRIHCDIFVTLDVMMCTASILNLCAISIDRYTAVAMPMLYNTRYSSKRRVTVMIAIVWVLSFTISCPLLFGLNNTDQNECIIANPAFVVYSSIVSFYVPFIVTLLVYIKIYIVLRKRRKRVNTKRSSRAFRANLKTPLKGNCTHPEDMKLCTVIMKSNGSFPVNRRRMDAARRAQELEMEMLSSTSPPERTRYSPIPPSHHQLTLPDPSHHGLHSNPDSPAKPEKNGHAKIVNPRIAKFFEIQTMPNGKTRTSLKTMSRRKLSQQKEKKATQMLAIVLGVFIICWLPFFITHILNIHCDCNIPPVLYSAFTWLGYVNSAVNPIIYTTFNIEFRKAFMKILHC

Molecular target: D(2) dopamine receptor (Rattus norvegicus, UniProt P61169)
Experiment: Agonist activity at rat D2 dopamine receptor expressed in CHOK1 cells assessed as [35S]GTPgammaS binding after 90 mins by liquid scintillation counter
Assay type: functional, cell-based, CHO-K1

EC50: 0.03 µM
Structure (SMILES): CN1CCc2cccc3c2[C@H]1Cc1ccc(O)c(O)c1-3 [APOMORPHINE]
